Data from PubChem BioAssay AID624352 (Sanford-Burnham Center for Chemical Genomics, 2012).
The entries are a selection whose mix differs from that of the whole data set. The source made the active and inactive calls.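 How the source made its calls: active means inhibition of the luminescence signal of 40% or more relative to plate controls, in a single-dose primary screen at 18.75 µM; inactive means the rest.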

Assay: blockers of HIF-2a driven luciferase – luminescence, 786-0 RCC cells, primary screen (AID 624352)
Details: 786-0 RCC cells HIF-2a reporter, overnight, at 18.8 µM, hits give high values

| SMILES | inhibition |
| --- | --- |
| CC1=NCCc2c1[nH]c1ccccc21.O=[N+]([O-])c1cc([N+](=O)[O-])c(O)c([N+](=O)[O-])c1 | inactive: 1.48% |
| O=[N+]([O-])c1cc([N+](=O)[O-])c(Nc2nnnn2CCO)c([N+](=O)[O-])c1 | inactive: 0.0939% |
| CC1=C2N=C(C=C3N=C(C(C)=C4[N-][C@@](C)([C@@H]5N=C1[C@](C)(CCC(=O)NC[C@@H](C)OP(=O)([O-])O[C@H]1[C@@H](O)[C@@H](n6cnc7cc(C)c(C)cc76)O[C@@H]1CO)[C@H]5CC(N)=O)[C@@](C)(CC(N)=O)[C@@H]4CCC(N)=O)[C@@](C)(CC(N)=O)[C@@H]3CCC(N)=O)C(C)(C)[C@@H]2CCC(N)=O.[C-]#N.[Co+3] | inactive: -11.9% |
| CCOC(=O)C(CC)C1=NC(C)(C)Cc2ccccc21.O=[N+]([O-])c1cc([N+](=O)[O-])c(O)c([N+](=O)[O-])c1 (centres undefined) | inactive: 11.2% |
| COc1ccc(-c2ccccn2)cc1.O=[N+]([O-])c1cc([N+](=O)[O-])c(O)c([N+](=O)[O-])c1 | inactive: -68.8% |
| CP(=O)(Nc1ccc(SC(F)(F)F)cc1)Oc1ccccc1 (centres undefined) | inactive: 7.65% |
| CCCOc1ccc(NP(C)(=O)Oc2ccc(Cl)cc2)cc1 (centres undefined) | inactive: 14.5% |
| CN1CCCCC1COC(=O)C1(O)c2ccccc2CCc2ccccc21 (centres undefined) | inactive: 6.79% |
| COc1ccccc1OP(C)(=O)Nc1c(C)cccc1C (centres undefined) | inactive: 1.08% |
| CN(Cc1cccnc1)C(=O)COc1ccc(Cl)c(Cl)c1.O=[N+]([O-])c1cc([N+](=O)[O-])c(O)c([N+](=O)[O-])c1 | inactive: -26.4% |
| O=[N+]([O-])c1cc([N+](=O)[O-])c(-n2nnc3ccccc32)c([N+](=O)[O-])c1 | inactive: 16% |
| Cc1nc2ccc3ccccc3c2s1.O=[N+]([O-])c1cc([N+](=O)[O-])c(O)c([N+](=O)[O-])c1 | inactive: -18.9% |
| O=[N+]([O-])c1cc([N+](=O)[O-])c(-c2cnn(-c3ccccc3)c2)c([N+](=O)[O-])c1 | inactive: -0.979% |
| CCc1ccc(OP(C)(=O)N2CCN(c3ccc([N+](=O)[O-])cc3)CC2)cc1 (centres undefined) | inactive: 19.9% |
| CP(=O)(NC(=O)Nc1ccccc1)Oc1ccccc1 (centres undefined) | inactive: 5.79% |
| Cc1cc(C)cc(OP(C)(=O)Nc2ccc(SC(F)(F)F)cc2)c1 (centres undefined) | inactive: 22.1% |
| CP(=O)(Nc1ccc(SC(F)(F)F)cc1)Oc1ccc(Cl)cc1 (centres undefined) | inactive: 21.9% |
| Cc1ccc(Nc2c([N+](=O)[O-])cc([N+](=O)[O-])cc2[N+](=O)[O-])cc1 | inactive: -24% |
| Cc1cccc(C)c1OP(C)(=O)Nc1ccc(SC(F)(F)F)cc1 (centres undefined) | inactive: -85.4% |
| CP(=O)(Oc1ccccc1)OC(c1ccccc1)C(F)(F)F (centres undefined) | inactive: 18.8% |

| SMILES | inhibition |
| --- | --- |
| CP(=O)(Nc1ccccn1)Oc1ccc(Cl)cc1 (centres undefined) | inactive: 6.21% |
| O=[N+]([O-])c1cc([N+](=O)[O-])c(O)c([N+](=O)[O-])c1.c1ccc(Oc2ccncc2)cc1 | inactive: 13% |
| CCOC(=O)c1ccc(NP(C)(=O)Oc2ccc(OC)cc2)cc1 (centres undefined) | inactive: 16.2% |
| CCOP(C)(=S)SCC(=O)NC(C)C(=O)O (centres undefined) | inactive: 13.6% |
| CP(=O)(Nc1ccccc1Br)Oc1ccccc1 (centres undefined) | inactive: 15.4% |
| COc1ccccc1OP(C)(=O)Nc1ccccc1 (centres undefined) | inactive: 15.9% |
| CP(=S)(Nn1cnnc1)Oc1ccccc1 (centres undefined) | inactive: 13.4% |
| O=[N+]([O-])c1ccc2c(c1)C=Nc1ccccc1O2 | inactive: 11.2% |
| CC(C)(C)c1ccc(OP(C)(=O)Nc2ccc(SC(F)(F)F)cc2)cc1 (centres undefined) | inactive: 28.9% |
| Cc1cccc(C)c1OP(C)(N)=O (centres undefined) | inactive: 13.4% |
| O=[N+]([O-])c1cc([N+](=O)[O-])c(Nc2cccnc2)c([N+](=O)[O-])c1 | inactive: -18.2% |
| Cc1cc(C)cc(OP(C)(N)=O)c1 (centres undefined) | inactive: 12.8% |
| COc1ccccc1OP(C)(=O)Nc1cc(Cl)ccc1C (centres undefined) | inactive: 23.6% |
| COc1ccc(OP(C)(=O)Nc2cccc(F)c2)cc1 (centres undefined) | inactive: -2.36% |
| COc1ccccc1OP(C)(=O)Nc1ccc(C)cc1 (centres undefined) | inactive: 8.86% |
| Cc1ccc(NP(C)(=O)Oc2ccccc2)c(C)c1 (centres undefined) | inactive: 20.1% |
| CCOC(=O)c1ccc(NP(C)(=O)Oc2ccccc2)cc1 (centres undefined) | inactive: 3.42% |
| CCN(CC)CCCOC(=O)C(O)(c1ccccc1)c1ccccc1 | inactive: 17.7% |
| COc1ccccc1-c1ccccn1.O=[N+]([O-])c1cc([N+](=O)[O-])c(O)c([N+](=O)[O-])c1 | inactive: -1.6% |
